# In the library only some 2.5% were active in any assay of this set; here they are far more common.
# miR-21 FLuc: raises the signal of a miR-21 reporter; HeLa miR-21 FLuc reporter, luciferase, 48 h; Potency, µM (top dose mostly 38.3 µM), for inactives: at the highest dose reporter change, positive = more light; AID 2288; 340,000 tested, under 10 active; active = well fitted rising curve with a large enough effect; inconclusive = small, poorly fitted or top-dose-only effect; inactive = no such curve, though single readings can be large or run the other way;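 note: % of control where 0% means no effect; miR-21 action dims this reporter so a rising signal means less miR-21 action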
#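 HeLa miR-21-FLuc reporter line, endogenous miR-21; 2000 cells/well in DMEM/10% FBS; compound titration up to ~40uM final, 48 h, 37 degree Celsius; luciferase detection reagent, 15 min lysis, CCD luminescence.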
# ClpP mod: qHTS Assay for Activators of ClpP; AID 651965, 2013; purified B. subtilis ClpP, FRET peptide cleavage, 20 min; 340,000 tested, 1.9% active; ATP-dependent Clp protease proteolytic subunit (Bacillus subtilis (strain 168)), P80244; Potency, µM (titrated, usually from 57.5 µM), for inactives: at the highest dose activity change, negative = active; active = well fitted falling curve with a large enough effect; inconclusive = small, poorly fitted or top-dose-only effect; inactive = no such curve, though single readings can be large or run the other way; also: potency is read from the fitted curve at half-maximal effect; the source files actives as falling curves though it sought activators and does not explain the sign; nearly all actives have a fitted effect of over 65% in size
#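 Buffer: 100 mM Tris/HCl pH8, 100 mM KCl, 0.05% low protease BSA, 2.5% glycerol, 0.01% Tween-20. ClpP 10 microg/mL final; 20 min RT; delta FRET normalized to ADEP and DMSO controls.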
# Apoferritin bind: candidate novel general anesthetic via apoferritin binding | P02791 | apoferritin/1-aminoanthracene competitive binding, fluorescence | Potency, µM (top dose mostly 77.5 µM), for the others: at the top dose activity change, negative = displacement, hits mostly inhibitors | 350,000 tested, 0.074% active; also: potency is read from the fitted curve at half-maximal effect; % is scaled to controls: 0 for no effect and ±100 for the full control effect; nearly all actives have a fitted effect of over 20% in size
#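 Horse-spleen apoferritin (10 uM) was mixed with 50% saturated 1-aminoanthracene in PBS, exposed to compounds for 10 min at room temperature, and read for fluorescence (ex 380 nm, em 535 nm). Competitive displacement was fitted with a four-parameter Hill equation.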
# TrxR1 substrate: is turned over as a substrate by rat TrxR1; O89049; purified TrxR1 substrate turnover, NADPH consumption readout; Potency, µM (top dose mostly 114 µM), inactives show top-dose activity change, negative = substrate turnover; 390,000 tested, 0.01% active; also: potency is read from the fitted curve at half-maximal effect; % is scaled to controls: 0 for no effect and ±100 for the full control effect; nearly all actives have a fitted effect of over 50% in size
#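 Rat TrxR1, dispensed at 90 nM, was prereduced with 400 uM NADPH (final) for 5 min at ~22 deg C, then incubated with compound 15 min before 400 uM selenite. A first-read NADPH fluorescence drop versus no-compound background flagged substrates.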
# TrxR1 inh: blocks rat thioredoxin reductase 1. 390,000 tested, 1% active. recombinant rTrxR1, NADPH fluorescence consumption, selenite substrate. Potency, µM (series often up to 114 µM), for the others: top-dose activity change, negative = inhibition, actives largely listed as inhibitors. O89049; also: potency is read from the fitted curve at half-maximal effect; % is scaled to controls: 0 for no effect and ±100 for the full control effect; nearly all actives have a fitted effect of over 65% in size
#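 Rat TrxR1 (90 nM in the dispensed reagent) was pre-reduced with 400 uM NADPH for 5 min at room temperature, then incubated with compound for 15 min. After 400 uM selenite was added, NADPH fluorescence (Ex 340/Em 450 nm) was followed for 8 min.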
# * hit, by the source's call; ? = inconclusive; · = no result given; [ ] = remark or other dose. Unless noted, calls follow the shape of the dose curve; as a rule, active = well fitted curve in the direction sought with a large enough effect; inconclusive = small, poorly fitted or top-dose-only effect, or another doubt; inactive = no such curve, though single readings can be large; an effect the other way counts as inactive or inconclusive.
1	COc1cc([N+](=O)[O-])ccc1-c1ccc(/C=C2\C(=O)ON=C2c2ccccc2)o1
2	Cc1ccc(C2=NOC(=O)/C2=C\c2ccccc2)cc1
3	COC(=O)Oc1c(Br)c(=O)oc2ccccc12
4	CC(=O)Nc1c(NC(C)C)c2ccccc2oc1=O
5	O=C(Cc1ccc([N+](=O)[O-])cc1)N/N=C/c1ccc([N+](=O)[O-])o1

Chains of the proteins cited; added tags and fusions are not shown.
ATP-dependent Clp protease proteolytic subunit (Bacillus subtilis (strain 168)), P80244, UniProt P80244, whole entry, looked up: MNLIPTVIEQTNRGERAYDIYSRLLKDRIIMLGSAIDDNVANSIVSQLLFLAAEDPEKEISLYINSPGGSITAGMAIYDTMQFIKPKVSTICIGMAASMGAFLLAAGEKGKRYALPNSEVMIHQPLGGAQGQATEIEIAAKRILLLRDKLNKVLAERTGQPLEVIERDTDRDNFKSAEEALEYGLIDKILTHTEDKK

assay / compound | 1 | 2 | 3 | 4 | 5
miR-21 FLuc | · | · | · | 0% | ?
ClpP mod | -1% | 1% | 50% | -3% | -1%
Apoferritin bind | · | · | · | -6% | ?
TrxR1 substrate | -8% | 3% | -2% | -7%[57.1 µM] | -3%
TrxR1 inh | 7.9µM* | 4µM* | 7.9µM* | -8%[57.1 µM] | 14µM*

6	O=C(CC12CC3CC(CC(C3)C1)C2)N/N=C/c1ccc([N+](=O)[O-])o1
7	O=C(CN1CCOCC1)NN=Cc1ccc([N+](=O)[O-])o1
8	CCOC(=O)N/N=C\c1ccc([N+](=O)[O-])o1
9	O=C(CN1CCCCCCC1)N/N=C/c1ccc([N+](=O)[O-])o1
10	CCCCCCCC(=O)N/N=C/c1ccc([N+](=O)[O-])o1

assay / compound | 6 | 7 | 8 | 9 | 10
miR-21 FLuc | -4% | · | 23% | ? | -8%
ClpP mod | 1% | -1% | 0% | · | 1%
Apoferritin bind | -7% | · | -20% | ? | ?
TrxR1 substrate | 2% | · | -6% | -20% | -2%
TrxR1 inh | 40µM* | · | 7.1µM* | ? | ?

11	CC1(C(=O)N/N=C/c2ccc([N+](=O)[O-])o2)CC1(Br)Br (stereo not drawn)
12	CCOC(=O)c1ccc(NC(=O)c2cc(=O)c3ccc(C)c(C)c3o2)cc1
13	Cc1ccnc2ccc(N)cc12
14	CCCNc1nc(-c2ccccc2)c(C(=O)OCC)cc1C#N
15	COc1ccc2[nH]c(=O)c(CN(CCCN3CCOCC3)C(=O)NCc3ccccc3)cc2c1

assay / compound | 11 | 12 | 13 | 14 | 15
miR-21 FLuc | ? | -1% | · | 13% | -8%
ClpP mod | -5% | 0% | -13% | 28µM* | 16µM*
Apoferritin bind | -10% | -10% | · | -16% | -7%
TrxR1 substrate | -7% | -3% | 6% | 50% | 28%
TrxR1 inh | 45µM* | 0% | 13% | 37% | -11%

16	O=C(Nc1ccccc1F)N(CCCN1CCOCC1)Cc1cc2cc3c(cc2[nH]c1=O)OCCO3
17	CCN(CC)CCCN(Cc1cc2cc3c(cc2[nH]c1=O)OCCO3)C(=O)Nc1ccccc1
18	Cc1ccc(NC(=O)N(CCCN2CCOCC2)Cc2cc3cc4c(cc3[nH]c2=O)OCO4)cc1
19	O=C(Nc1ccccc1)N(CCCN1CCOCC1)Cc1cc2cc3c(cc2[nH]c1=O)OCCO3
20	O=C(CSc1nccn1-c1cccc(Cl)c1)Nc1cccc2ccccc12

assay / compound | 16 | 17 | 18 | 19 | 20
miR-21 FLuc | -7% | -16% | -7% | 5% | 3%
ClpP mod | 20µM* | 20µM* | -2% | 32µM* | 2%
Apoferritin bind | -12% | -14% | -10% | -6% | 2%
TrxR1 substrate | 60% | 23% | 25% | 22% | 4%[57.1 µM]
TrxR1 inh | -1% | -14% | -16% | -11% | 16%[57.1 µM]

21	CCc1ccccc1N(C)S(=O)(=O)c1ccc2c(c1)C(C)(C)C(=O)N2C
22	COc1ccccc1N1CCN(S(=O)(=O)c2c(C)sc3ncn(CC(=O)N(C)c4ccc(C(C)C)cc4)c(=O)c23)CC1
23	CCN(CC)CCCNC(=O)Cn1c(-c2cccs2)cc2cc(Cl)ccc21
24	CCN1CCN(CCCNC(=O)Cn2c(-c3cccs3)cc3cc(Cl)ccc32)CC1
25	CCC(C)NC(=O)Cn1c(-c2cccs2)cc2cc(Cl)ccc21 (stereo not drawn)

assay / compound | 21 | 22 | 23 | 24 | 25
miR-21 FLuc | 8% | 25% | -1% | -7% | 2%
ClpP mod | 2% | 0% | 28µM* | 32µM* | ?
Apoferritin bind | ? | -11% | 0% | -9% | -4%
TrxR1 substrate | 3%[57.1 µM] | -6% | 35% | 50% | 23%
TrxR1 inh | 10%[57.1 µM] | 12% | 3% | 21% | 23%

26	O=C(O)Cn1c(-c2cccs2)cc2cc(Cl)ccc21
27	COc1ccc(N2CCN(CCCNC(=O)Cn3c(-c4cccs4)cc4ccccc43)CC2)cc1
28	CN1CCN(CCCNC(=O)Cn2c(-c3cccs3)cc3cc(Cl)ccc32)CC1
29	O=C(Cn1c(-c2cccs2)cc2cc(Cl)ccc21)NCc1ccccc1
30	O=C(Cn1cc(C(=O)c2ccccc2)c(=O)c2cc3c(cc21)OCCO3)Nc1ccc(F)c(F)c1

assay / compound | 26 | 27 | 28 | 29 | 30
miR-21 FLuc | -4% | 3% | -6% | 0% | 30%
ClpP mod | 5% | 4% | 32µM* | 28µM* | -3%
Apoferritin bind | -6% | -16% | -9% | 85% | -17%
TrxR1 substrate | 143% | 15% | 51% | 43% | 0%
TrxR1 inh | 7% | -3% | 19% | 23% | 7%

31	CCOc1ccc(C(NC(C)=O)c2cc(Cl)c3cccnc3c2O)cc1 (stereo not drawn)
32	O=C(O)COc1ccccc1C(Nc1cccnc1)c1cc(Cl)c2cccnc2c1O (stereo not drawn)
33	O=C(O)COc1ccccc1C(Nc1ccccn1)c1cc(Cl)c2cccnc2c1O (stereo not drawn)
34	CCOc1ccc(C(Nc2cccnc2)c2cc(Cl)c3cccnc3c2O)cc1 (stereo not drawn)
35	CCOc1ccc(C(=O)N(Cc2ccc(C(C)C)cc2)Cc2ccco2)cc1

assay / compound | 31 | 32 | 33 | 34 | 35
miR-21 FLuc | · | 0% | -6% | 23% | 4%
ClpP mod | -2% | · | 3% | 4% | 0%
Apoferritin bind | · | 28µM* | -8% | -11% | 95%
TrxR1 substrate | -6% | 1%[57.1 µM] | -5%[11.4 µM] | 9%[11.4 µM] | -5%
TrxR1 inh | 22%[0.0914 µM] | 0.56µM* | ? | 2.8µM* | 39%

36	Cc1ccc2c(C)nc(N/C(N)=N/S(=O)(=O)c3ccccc3)nc2c1
37	Cc1ccc(S(=O)(=O)/N=C(\N)Nc2nc(C)c3ccc(C)cc3n2)cc1
38	CCc1c(C)c2ccc(O)c(CN3CCN(c4cc(Cl)ccc4C)CC3)c2oc1=O
39	O=C(N/N=C/c1ccc(-c2ccccc2[N+](=O)[O-])o1)c1cccnc1
40	NS(=O)(=O)c1ccc2c(c1)C1C=CCC1C(C1CC=CCC1)N2 (stereo not drawn)

assay / compound | 36 | 37 | 38 | 39 | 40
miR-21 FLuc | -16% | -3% | -53% | -3% | -1%
ClpP mod | 28µM* | ? | 4% | 1% | -3%
Apoferritin bind | -5% | 1% | 119% | 0% | ?
TrxR1 substrate | 23% | 17% | 46% | -14% | 1%
TrxR1 inh | 8% | 31% | 0% | 50µM* | 40µM*

41	CC(=O)c1ccc(NC(=O)COCc2cc(-c3ccco3)on2)cc1
42	CCOc1cc(C2C3=C(CCCC3=O)N(CCC(=O)O)C3=C2C(=O)CCC3)ccc1OS(=O)(=O)c1ccc(C)cc1
43	Cc1ccc(S(=O)(=O)Oc2ccc(C3C4=C(CCCC4=O)N(CCC(=O)O)C4=C3C(=O)CCC4)cc2Cl)cc1
44	Cc1ccc(-c2nc3c(c(=O)[nH]c(=O)n3Cc3ccccc3)n2C)o1

assay / compound | 41 | 42 | 43 | 44
miR-21 FLuc | -6% | -3% | -7% | -13%
ClpP mod | 0% | ? | 25µM* | 4%
Apoferritin bind | 33% | 426% | 520% | -19%
TrxR1 substrate | 1% | 271% | 318% | 17%[57.1 µM]
TrxR1 inh | -13% | -16% | -33% | 32µM*

# Three entries from above, as tab-separated lines.
item	mol	miR-21 FLuc	ClpP mod	Apoferritin bind	TrxR1 substrate	TrxR1 inh
44	Cc1ccc(-c2nc3c(c(=O)[nH]c(=O)n3Cc3ccccc3)n2C)o1	-13%	4%	-19%	17%[57.1 µM]	32µM*
43	Cc1ccc(S(=O)(=O)Oc2ccc(C3C4=C(CCCC4=O)N(CCC(=O)O)C4=C3C(=O)CCC4)cc2Cl)cc1	-7%	25µM*	520%	318%	-33%
42	CCOc1cc(C2C3=C(CCCC3=O)N(CCC(=O)O)C3=C2C(=O)CCC3)ccc1OS(=O)(=O)c1ccc(C)cc1	-3%	?	426%	271%	-16%
